# Yeast mating assay 1: variants of the scFv Ab-14

Target: peptide PDVDLGDISGINAS, taken from heptad repeat 2 (HR2) of SARS-CoV-2 spike.

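The parent was found by panning a naive human phage display library on the peptide. Variants in AAYL49 differ from the parent at up to three CDR positions; double and triple changes were sampled at random. The scFvs were displayed on barcoded MATa yeast, the peptide on MATalpha yeast. Pairs that bind mate more often; barcode pairs of the diploids are counted by sequencing. Scores were corrected for input abundance and mapped to Kd with protein pairs of known affinity run in the same pool. Mating was done three times.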

The variants keep the light chain, the linker and the frameworks of Ab-14 (scFv order VH, three GGGGS repeats, VL).
VH: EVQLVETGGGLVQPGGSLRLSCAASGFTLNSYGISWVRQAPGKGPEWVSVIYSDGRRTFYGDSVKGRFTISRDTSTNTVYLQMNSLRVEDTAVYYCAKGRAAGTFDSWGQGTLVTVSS
VL: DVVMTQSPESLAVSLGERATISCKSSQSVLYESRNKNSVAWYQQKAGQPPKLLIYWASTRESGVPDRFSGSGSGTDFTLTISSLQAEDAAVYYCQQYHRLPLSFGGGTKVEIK

Sequences are complete VH domains.
This list gathers variants with a substitution at D54 (VH, numbered from residue 1).
Each Kd is an estimate from the mating assay, the geometric mean of the replicates in which the pair was seen; lower is stronger.
"nd" marks a missing value. The strain was present, yet no cells mated with the target were sequenced in any replicate, which points to weak or no binding.
Parent in this assay: reference entry 4.4 nM, copy in this library 13 µM (one replicate of three).
Nonspecific signal, from three strains lacking the peptide, appeared in 15% of pairings of library AAYL49, centred on 11 µM (5% of these signals below 680 nM); values are not corrected for it.

VH	Kd	replicates with signal
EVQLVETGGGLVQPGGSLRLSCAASGFSLNSYIISWVRQAPGKGPEWVSVIYSPGRRTFYGDSVKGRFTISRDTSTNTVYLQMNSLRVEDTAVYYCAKGRAAGTFDSWGQGTLVTVSS	nd	0 of 3
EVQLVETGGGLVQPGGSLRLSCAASGFTLNSYGISWVRQAPGKGPEWVSVIKSHGRRTFYGDSVKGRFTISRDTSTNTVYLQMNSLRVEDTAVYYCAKGRAAATFDSWGQGTLVTVSS	nd	0 of 3
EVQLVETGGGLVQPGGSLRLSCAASGFTLASYGISWVRQAPGKGPEWVSVIYSLGRRTFYGDSVRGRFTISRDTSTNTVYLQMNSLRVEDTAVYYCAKGRAAGTFDSWGQGTLVTVSS	nd	0 of 3
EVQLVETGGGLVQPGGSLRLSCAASGFTLNSYGISWVRQAPGKGPEWVSVIYSPCRRTFYGDSVKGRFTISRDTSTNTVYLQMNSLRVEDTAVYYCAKGRAAGTFDGWGQGTLVTVSS	nd	0 of 3
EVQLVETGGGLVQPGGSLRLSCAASGYTLNSYGGSWVRQAPGKGPEWVSVIYSKGRRTFYGDSVKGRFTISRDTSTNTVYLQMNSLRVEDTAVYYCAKGRAAGTFDSWGQGTLVTVSS	100 µM	1 of 3
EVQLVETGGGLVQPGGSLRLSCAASGFTLNSYGISWVRQAPGKGPEWVSVINSQGRRTFYGDSVKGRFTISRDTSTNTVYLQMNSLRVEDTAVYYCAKGRAAGTFFSWGQGTLVTVSS	nd	0 of 3
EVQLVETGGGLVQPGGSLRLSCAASGFELNSYGISWVRQAPGKGPEWVSVIYSLGRRTGYGDSVKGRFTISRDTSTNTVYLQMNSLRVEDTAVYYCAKGRAAGTFDSWGQGTLVTVSS	8.7 µM	1 of 3
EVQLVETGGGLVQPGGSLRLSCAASGFTLNSYGISWVRQAPGKGPEWVSVIYSVGRRTFYGDGVKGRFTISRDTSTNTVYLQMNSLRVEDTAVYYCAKGRAAGTFDDWGQGTLVTVSS	nd	0 of 3
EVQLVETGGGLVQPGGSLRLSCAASGCTLNSYGISWVRQAPGKGPEWVSVIYPFGRRTFYGDSVKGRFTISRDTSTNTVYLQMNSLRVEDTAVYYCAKGRAAGTFDSWGQGTLVTVSS	nd	0 of 3
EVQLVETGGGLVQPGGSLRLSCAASGFWLNSYGISWVRQAPGKGPEWVSVIYSPGRRTFYGDSVKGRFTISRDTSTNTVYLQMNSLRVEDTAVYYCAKGRAAGTFDSWGQGTLVTVSS	34 µM	3 of 3
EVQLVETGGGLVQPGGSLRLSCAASGFTLNSYGISWVRQAPGKGPEWVSVIYSNGYRTFYGDSVKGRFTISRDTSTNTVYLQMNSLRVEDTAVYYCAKARAAGTFDSWGQGTLVTVSS	750 nM	3 of 3
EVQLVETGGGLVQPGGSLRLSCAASGFTLNSYGISWVRQAPGKGPEWVSVIYKCGRRTFYGDSVKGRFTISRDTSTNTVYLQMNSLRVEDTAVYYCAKGRIAGTFDSWGQGTLVTVSS	23 µM	3 of 3
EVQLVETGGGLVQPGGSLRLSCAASGFTLNSYGISWVRQAPGKGPEWVSVIYSAGRWTFYGDSVKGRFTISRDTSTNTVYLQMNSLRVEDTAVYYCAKGRCAGTFDSWGQGTLVTVSS	nd	0 of 3
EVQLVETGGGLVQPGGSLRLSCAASGFTLNMYGISWVRQAPGKGPEWVSVIYSAGRRTFYGDSLKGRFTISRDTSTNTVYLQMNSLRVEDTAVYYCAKGRAAGTFDSWGQGTLVTVSS	nd	0 of 3
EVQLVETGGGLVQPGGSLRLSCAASRFTLNSYGISWVRQAPGKGPEWVSVIYSAGRRTFYGDSVKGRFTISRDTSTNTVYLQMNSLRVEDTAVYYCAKGRAAGTFDVWGQGTLVTVSS	nd	0 of 3
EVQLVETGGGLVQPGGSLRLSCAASGFTLNSYGISWVRQAPGKGPEWVSVIYSLGRRTFYGDSVKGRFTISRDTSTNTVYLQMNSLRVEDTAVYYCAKGRAAGTFDSWGQGTLVTVSS	nd	0 of 3
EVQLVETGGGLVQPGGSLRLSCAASGFTLNSYGISWVRQAPGKGPEWVSVINSFGRRTFYGDSVKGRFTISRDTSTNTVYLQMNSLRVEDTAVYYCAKFRAAGTFDSWGQGTLVTVSS	nd	0 of 3
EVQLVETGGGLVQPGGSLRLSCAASGFILNSYGISWVRQAPGKGPEWVSVIYSYGRRTFYGDSWKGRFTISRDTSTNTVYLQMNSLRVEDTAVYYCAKGRAAGTFDSWGQGTLVTVSS	2.4 µM	1 of 3
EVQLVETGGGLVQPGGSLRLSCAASGFTNNSYGISWVRQAPGKGPEWVSVIYSAGRRTFYGDSVKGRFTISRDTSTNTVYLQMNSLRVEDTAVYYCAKGRAAFTFDSWGQGTLVTVSS	130 µM	1 of 3
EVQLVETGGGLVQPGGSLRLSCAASGFTLWSYGISWVRQAPGKGPEWVSVIYSHGRRTFYGDSVKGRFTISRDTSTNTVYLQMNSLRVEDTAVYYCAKGCAAGTFDSWGQGTLVTVSS	nd	0 of 3
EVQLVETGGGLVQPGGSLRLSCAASGFTLNSYGISWVRQAPGKGPEWVSVIYSADYRTFYGDSVKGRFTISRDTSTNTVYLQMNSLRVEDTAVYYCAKGRAAGTFDSWGQGTLVTVSS	nd	0 of 3

Source: Engelhart et al. 2022 (doi:10.1038/s41597-022-01779-4), MIT Lincoln Laboratory and A-Alpha Bio; data file from the FLAb repository.